This note sets out measurements from PubChem BioAssay AID624246 (National Center for Advancing Translational Sciences (NCATS), 2012).

Chains of the proteins cited; added tags and fusions are not shown.
UniProt P11308, whole entry: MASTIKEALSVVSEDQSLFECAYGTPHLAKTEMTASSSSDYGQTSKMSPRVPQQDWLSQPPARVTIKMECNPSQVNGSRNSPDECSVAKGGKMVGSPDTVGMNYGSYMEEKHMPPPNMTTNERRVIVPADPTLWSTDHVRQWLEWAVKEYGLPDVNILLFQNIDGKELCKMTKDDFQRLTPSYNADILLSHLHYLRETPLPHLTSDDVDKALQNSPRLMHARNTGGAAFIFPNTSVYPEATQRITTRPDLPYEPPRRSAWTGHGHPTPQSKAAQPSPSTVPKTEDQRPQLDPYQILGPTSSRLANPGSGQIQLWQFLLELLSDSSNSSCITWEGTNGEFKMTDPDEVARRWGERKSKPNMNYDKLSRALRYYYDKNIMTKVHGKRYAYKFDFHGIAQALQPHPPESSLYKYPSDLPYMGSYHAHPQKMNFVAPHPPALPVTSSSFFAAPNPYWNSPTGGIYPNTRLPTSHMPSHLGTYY

This is a selection; strong and weak results do not stand in their true shares. The source made the active and inactive calls. The call rests on the fitted dose curve; in most records, active means well fitted inhibition curve with a large enough effect in the polarisation, with a control signal flat; inconclusive means small, poorly fitted or top-dose-only effect, or effect the other way, or a change in a side signal; inactive means no such curve, though single readings can be large or run the other way; the % refers to the polarisation.

The assay deals with Transcriptional regulator ERG (Homo sapiens) (UniProt P11308). As to the kind of experiment: qHTS for Small Molecule Inhibitors of the ERG Ets/DNA interaction. Further: % of control where 0% means no effect. The settings on record: fluorescence polarization, His-ERG Ets domain / labelled DNA; at 76.9 µM (top of the series). The text has this: The Ets family of proteins is a family of ~30 conserved transcription factors defined by the presence of an ~85 amino acid domain referred to as the Ets domain, which mediates sequence-specific DNA binding to a core DNA element GGAA/T.The Ets family member ERG has been linked to several neoplasms. […] More extensive studies of the effects of over-expression of ERG in prostate cells have recently been carried out and have shown that over-expression of ERG results in increased invasion. […] We will carry out a high throughout screen to identify inhibitors of the interaction between ERG and DNA using a fluorescence polarization (FP) assay with a His-tagged ERG Ets domain and fluorescently-labeled DNA probes to develop small molecule inhibitors of this interaction as probes to test this hypothesis and lay the groundwork for the development of targeted therapies against ERG. NIH Molecular Libraries Probe Production Network [MLPCN] NIH Chemical Genomics Center [NCGC] Grant: NS066464 PI Name: John Bushweller, University of Virgina
1.5 ul of protein solution (1 uM ERG domain in 300mM KCl, 50mM Tris-HCl, 1mM EDTA, 1mM DTT, pH 7.5); 20 nl Control plate and compound library plate; 1.5 ul mixture of 5 nM Fluorescein-DNA and 100nM Texas-615-DNA solution in same buffer as above solution; measure fluorescence polarization sequentially for fluorescein (Excitation = 480 nm, Emission = 535s, 535p nm) and Texas red (Excitation = 555 nm, Emission = 632s, 632p nm).
For orientation: In qHTS, concentration-response curves come from the screen itself.
On to `CCOC(=O)c1ccc(NP(C)(=O)Oc2ccc(OC)cc2)cc1` (configuration not stated), for which the FP activity, negative = inhibition was inactive: -1.72%. Take `O=[N+]([O-])c1cc([N+](=O)[O-])c(O)c([N+](=O)[O-])c1.c1ccc(Oc2ccncc2)cc1`: the FP activity, negative = inhibition is inactive: 15.6%.

For `CCOP(C)(=S)SCC(=O)NC(C)C(=O)O` (configuration not stated), the FP activity, negative = inhibition is inactive: -5.92%. The value for `Cc1cccc(C)c1OP(C)(=O)Nc1ccc(SC(F)(F)F)cc1` (configuration not stated) was inactive: 9.22%; that for `CP(=O)(Nc1ccc(SC(F)(F)F)cc1)Oc1ccc(Cl)cc1` (configuration not stated) was inactive: -4.6%. For `CP(=O)(Oc1ccccc1)OC(c1ccccc1)C(F)(F)F` (configuration not stated) the value was inactive: -4.53%.

Regarding `CCc1ccc(OP(C)(=O)N2CCN(c3ccc([N+](=O)[O-])cc3)CC2)cc1` (configuration not stated), the FP activity, negative = inhibition is inactive: -4.35%.

Regarding `Cc1cc(C)cc(OP(C)(=O)Nc2ccc(SC(F)(F)F)cc2)c1` (configuration not stated), the FP activity, negative = inhibition is inactive: 2.46%.

Regarding `CP(=S)(Nn1cnnc1)Oc1ccccc1` (configuration not stated), the FP activity, negative = inhibition is inactive: 1.51%.

Take `CP(=O)(Nc1ccccc1Br)Oc1ccccc1` (configuration not stated): the FP activity, negative = inhibition is inactive: -29.3%. On to `COc1ccccc1OP(C)(=O)Nc1ccccc1` (configuration not stated), for which the FP activity, negative = inhibition was inactive: 2.23%. On to `COc1ccccc1OP(C)(=O)Nc1ccc(C)cc1` (configuration not stated), for which the FP activity, negative = inhibition was inactive: -3.98%. For the compound `Cc1ccc(NP(C)(=O)Oc2ccccc2)c(C)c1` (configuration not stated), the FP activity, negative = inhibition is inactive: -8.84%. The value for `CCOC(=O)c1ccc(NP(C)(=O)Oc2ccccc2)cc1` (configuration not stated) was inactive: -6.43%. The value for `Cc1cc(C)cc(OP(C)(N)=O)c1` (configuration not stated) was inactive: -0.31%; that for `COc1ccccc1OP(C)(=O)Nc1cc(Cl)ccc1C` (configuration not stated) was inactive: 11.1%. Turning to `COc1ccc(OP(C)(=O)Nc2cccc(F)c2)cc1` (configuration not stated), the FP activity, negative = inhibition was inactive: -4%. The value for `O=[N+]([O-])c1cc([N+](=O)[O-])c(Nc2cccnc2)c([N+](=O)[O-])c1` was inactive: 14.5%; that for `O=[N+]([O-])c1ccc2c(c1)C=Nc1ccccc1O2` was inactive: 13.7%; that for `CC(C)(C)c1ccc(OP(C)(=O)Nc2ccc(SC(F)(F)F)cc2)cc1` (configuration not stated) was inactive: -22.1%. For `Cc1cccc(C)c1OP(C)(N)=O` (configuration not stated) the value was inactive: 10.1%; for `CCN(CC)CCCOC(=O)C(O)(c1ccccc1)c1ccccc1`, inactive: -0.185%. For `Cc1ccc(C)c(NP(C)(=O)Oc2ccccc2)c1` (configuration not stated) the value was inactive: -8.3%; for `CP(=O)(Nc1cccc(Br)c1)Oc1ccccc1` (configuration not stated), inactive: 1.33%; for `COc1ccccc1OP(C)(=O)Nc1cccc(Br)c1` (configuration not stated), inactive: -0.512%. `Cc1cc(C)cc(OP(C)(=O)Nc2ccc(C)cc2C)c1` (configuration not stated): the FP activity, negative = inhibition was inactive: 5.49%. For `CC1=NCCc2c1[nH]c1ccccc21.O=[N+]([O-])c1cc([N+](=O)[O-])c(O)c([N+](=O)[O-])c1` the value was inactive: 5.12%; for `COc1ccccc1OP(C)(=O)Nc1c(C)cccc1C` (configuration not stated), inactive: -1.77%.

`CN1CCCCC1COC(=O)C1(O)c2ccccc2CCc2ccccc21` (configuration not stated): the FP activity, negative = inhibition was inactive: 7.47%. Consider `CCCOc1ccc(NP(C)(=O)Oc2ccc(Cl)cc2)cc1` (configuration not stated), for which the FP activity, negative = inhibition is inactive: -3.94%.

Regarding `CP(=O)(Nc1ccc(SC(F)(F)F)cc1)Oc1ccccc1` (configuration not stated), the FP activity, negative = inhibition was inactive: 5.54%. The value for `CC1=C2N=C(C=C3N=C(C(C)=C4[N-][C@@](C)([C@@H]5N=C1[C@](C)(CCC(=O)NC[C@@H](C)OP(=O)([O-])O[C@H]1[C@@H](O)[C@@H](n6cnc7cc(C)c(C)cc76)O[C@@H]1CO)[C@H]5CC(N)=O)[C@@](C)(CC(N)=O)[C@@H]4CCC(N)=O)[C@@](C)(CC(N)=O)[C@@H]3CCC(N)=O)C(C)(C)[C@@H]2CCC(N)=O.[C-]#N.[Co+3]` was inactive: 1.84%; that for `O=[N+]([O-])c1cc([N+](=O)[O-])c(Nc2nnnn2CCO)c([N+](=O)[O-])c1` was inactive: -7.95%. For `O=[N+]([O-])c1cc([N+](=O)[O-])c(-c2cnn(-c3ccccc3)c2)c([N+](=O)[O-])c1`, the FP activity, negative = inhibition is inactive: 1.87%. For `Cc1nc2ccc3ccccc3c2s1.O=[N+]([O-])c1cc([N+](=O)[O-])c(O)c([N+](=O)[O-])c1` the value was inactive: 6.41%; for `O=[N+]([O-])c1cc([N+](=O)[O-])c(-n2nnc3ccccc32)c([N+](=O)[O-])c1`, inactive: 8.76%; for `CP(=O)(Nc1ccc2c(c1)OCCO2)Oc1ccccc1` (configuration not stated), inactive: 9.54%.

For `Cc1ccccc1NP(C)(=O)Nc1ccccc1C`, the FP activity, negative = inhibition is inactive: -3.18%. The value for `CP(=O)(Nc1ccc(SC(F)(F)F)cc1)Oc1ccc(F)cc1` (configuration not stated) was inactive: -17.5%; that for `CCOP(C)(=S)SCC(=O)NC(C)(CC)C(=O)O` (configuration not stated) was inactive: -0.283%. For `O=[N+]([O-])c1ccc(OP2(=O)COCCO2)cc1` (configuration not stated) the value was inactive: 2.69%; for `Cc1cc(-c2cccc3ccccc23)c(C)cn1.O=[N+]([O-])c1cc([N+](=O)[O-])c(O)c([N+](=O)[O-])c1`, inactive: 4.07%. For the compound `Cc1c(C(c2ccc3c(c2)OCO3)c2c(C)n(C)n(-c3ccccc3)c2=O)c(=O)n(-c2ccccc2)n1C.O=[N+]([O-])c1cc([N+](=O)[O-])c(O)c([N+](=O)[O-])c1`, the FP activity, negative = inhibition was inactive: -7.46%. For `COc1ccc(OP(C)(=O)Nc2cccc(Br)c2)cc1` (configuration not stated) the value was inactive: -1.31%. Regarding `CN(C)CCOC(=O)C(O)(c1ccccc1)C1CCCCC1` (configuration not stated), the FP activity, negative = inhibition was inactive: 1.77%.

Consider `COc1ccc(NP(C)(=O)Oc2ccccc2OC)cc1` (configuration not stated), for which the FP activity, negative = inhibition is inactive: 0.439%. For `Cc1c([N+](=O)[O-])cc([N+](=O)[O-])c(Br)c1[N+](=O)[O-]` the value was inactive: -1.87%. For `CCN(CC)CCCOC(=O)C(O)(c1ccccc1)C1CCCCC1` (configuration not stated) the value was inactive: 2.65%; for `CCCCCOc1ccc(NP(C)(=O)Oc2ccc(Cl)cc2Cl)cc1` (configuration not stated), inactive: 5.6%; for `CCOC(=O)c1ccc(NP(C)(=O)Oc2ccc(F)cc2)cc1` (configuration not stated), inactive: -7.52%. The value for `COc1ccc(OP(C)(=O)Nc2ccc(SC(F)(F)F)cc2)cc1` (configuration not stated) was inactive: 0.293%. `O=C(OCCN1CCN(CCOCc2ccccc2)CC1)C(O)(c1ccccc1)c1ccccc1`: the FP activity, negative = inhibition was inactive: -2.44%. For `CC(C)c1ccc(OP(C)(=O)Nc2ccc(SC(F)(F)F)cc2)cc1` (configuration not stated) the value was inactive: 5.89%. The value for `Cc1c(NP(C)(=O)Oc2ccc(C(C)C)cc2)c(=O)n(-c2ccccc2)n1C` (configuration not stated) was inactive: -7.99%; that for `O=[N+]([O-])c1cc([N+](=O)[O-])c(Nc2ccccn2)c([N+](=O)[O-])c1` was inactive: 2.98%; that for `CP(=O)(Nc1ccccn1)Oc1ccccc1` (configuration not stated) was inactive: -0.991%. The value for `COc1ccccc1OP(C)(=O)Nc1ccc(C)cc1C` (configuration not stated) was inactive: -5.94%; that for `CCc1ccc(OP(C)(=O)O)cc1` was inactive: -7.35%; that for `COc1ccccc1OP(C)(=O)Nc1ccc(Br)cc1` (configuration not stated) was inactive: -3.14%. For the compound `CP(=O)(Nc1ccc(Cl)cc1Cl)Oc1ccccc1` (configuration not stated), the FP activity, negative = inhibition is inactive: 7.51%.

Take `CCCCCCCCCCCCCCCC1C[N+](C)(C)CCOP(C)(=O)O1` (configuration not stated): the FP activity, negative = inhibition was inactive: 8.01%. For `CP(=O)(OCCOc1ccccc1)OCCOc1ccccc1` the value was inactive: -6.95%. The value for `Cc1cc(C)cc(OP(C)(=O)Nc2cccc(C(F)(F)F)c2)c1` (configuration not stated) was inactive: 1.97%.

As for `COc1ccccc1OP(C)(=O)Nc1ccc(C)c(C)c1` (configuration not stated), the FP activity, negative = inhibition is inactive: 2.51%. The value for `COc1ccc(OP(C)(=O)Nc2ccccc2Br)cc1` (configuration not stated) was inactive: -3.32%.

As for `Nc1ccc2c(ccc3cccnc32)n1.O=[N+]([O-])c1cc([N+](=O)[O-])c(O)c([N+](=O)[O-])c1`, the FP activity, negative = inhibition is inactive: -0.164%. `CCOC(=O)c1ccc(NP(C)(=O)Oc2ccc(Cl)cc2)cc1` (configuration not stated): the FP activity, negative = inhibition was inactive: -7.12%. For `CP(=O)(OC12CC3CC(CC(C3)C1)C2)OC12CC3CC(CC(C3)C1)C2` the value was inactive: -5.07%. For `COc1ccccc1OP(C)(=O)Nc1ccccc1Br` (configuration not stated) the value was inactive: 24.2%; for `CC(C)(C)c1ccc(OP(C)(=O)O)cc1`, inactive: 0.233%. As to `CN(C)C(=O)c1c([N+](=O)[O-])cc([N+](=O)[O-])cc1[N+](=O)[O-]`, the FP activity, negative = inhibition is inactive: 7.87%. For `CCN(CC)CC(O)COC(=O)C(O)(c1ccccc1)C1CCCCC1` (configuration not stated) the value was inactive: 5.19%; for `COc1ccc(OP(C)(=O)Nc2ccc(Br)cc2)cc1` (configuration not stated), inactive: -1.15%. With `COc1ccccc1OP(C)(=O)Nc1c(C)n(C)n(-c2ccccc2)c1=O` (configuration not stated), the FP activity, negative = inhibition was inactive: 3.25%. On to `O=C(OCCCN1CCCC1)C(O)(c1ccccc1)C1CCCCC1` (configuration not stated), for which the FP activity, negative = inhibition was inactive: 4.03%. The value for `CP(=O)(Oc1ccccc1)N1CCOC1=O` (configuration not stated) was inactive: -22.7%; that for `CCc1ccc(OP(C)(=O)Nc2cccnc2)cc1` (configuration not stated) was inactive: 5.42%.
